Source: patent US9718840B2, “Condensed 5-oxazolidinone derivative” (SUMITOMO DAINIPPON PHARMA CO., LTD., priority 2014, dated 2017)

Sequences of proteins named here, by UniProt entry; tags and fusion partners are left off. Residues count along the entry.
UniProt P03951, 19-387 partner limits assumed: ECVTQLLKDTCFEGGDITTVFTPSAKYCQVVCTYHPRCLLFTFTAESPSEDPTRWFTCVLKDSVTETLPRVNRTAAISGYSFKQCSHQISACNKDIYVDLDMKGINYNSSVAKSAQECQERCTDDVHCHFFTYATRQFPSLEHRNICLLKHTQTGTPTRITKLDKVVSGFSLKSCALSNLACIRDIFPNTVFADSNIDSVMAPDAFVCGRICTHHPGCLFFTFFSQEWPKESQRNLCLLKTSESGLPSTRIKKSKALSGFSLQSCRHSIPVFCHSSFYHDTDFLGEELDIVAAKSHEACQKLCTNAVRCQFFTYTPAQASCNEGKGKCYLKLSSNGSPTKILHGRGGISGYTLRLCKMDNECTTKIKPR
UniProt P03951, 388-625 limits assumed: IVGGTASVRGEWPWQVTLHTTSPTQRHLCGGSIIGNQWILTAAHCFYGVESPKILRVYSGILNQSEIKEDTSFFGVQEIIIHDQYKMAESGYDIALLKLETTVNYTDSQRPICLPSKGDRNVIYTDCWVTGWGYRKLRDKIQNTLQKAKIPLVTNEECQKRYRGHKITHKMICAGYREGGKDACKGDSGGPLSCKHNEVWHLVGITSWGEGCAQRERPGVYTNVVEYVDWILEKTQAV

Target: Human FXIa (Homo sapiens, UniProt P03951)
Assay: In vitro activated factor XI (FXIa) inhibition test
Assay type: biochemical
Details: read-out: FXIa Inhibition activity IC50; substrate S-2366, 37° C., 10 minutes

Which IC50 does the source give for `COC1CCC([C@@H]2CCN(C(=O)[C@H]3CC[C@H]([C@H](N)CF)CC3)[C@@H]2C(=O)Nc2ccc3[nH]c(C(=O)O)cc3c2)CC1` (stereo partly shown) here?
Its IC50 is 0.011 µM.
